The structures appear in SMILES notation.

The term Ki denotes the equilibrium dissociation constant of an inhibitor or competing ligand from its target.

For this assay, the target named is Mu-type opioid receptor (Homo sapiens, UniProt P35372). Kind of assay: Binding Assay: The affinity to the human μ-opiate receptor was determined in a homogeneous preparation in microtiter plates. For this, dilution series of the respective compound to be tested were incubated for 90 minutes at room temperature with a receptor membrane preparation (15-40 mg of protein per 250 μl of incubation batch) of CHO-K 1 cells, which express the human μ-opiate receptor (RB-HOM r.

The molecule `COc1ccc(C2(N(C)C)CCC(c3ccccc3)(N(C)C)CC2)cc1` (stereo unspecified) displayed an inhibition constant (Ki) of 660 nM.
